Here are results for 1 substance from patent publication US11400070B2, “Methods of treating retinal diseases” (Alimera Sciences, Inc., priority 2018, dated 2022).

The assay concerns ARPE-19 monolayers. Description: Suppression of gHSA-induced reduction of TEER in confluent ARPE-19 monolayers. The assay is classed as cell-based. The following applies: 100 μg/mL, 6 hours, no pretreatment.

Consider glycated human serum albumin [gHSA], for which the “Maximum reduction in resistance (TEER)” value was 23±1.7%.
